# Laboratory results as given in ChEMBL document CHEMBL1124922 (J Med Chem, 1990).
# How the values were obtained:
# [1] = organism: Cricetulus griseus; experiment: Evaluated for hypersensitivity factor (HF) (HF = IC50 AA8 / IC50 UV-4) values are intra experiment ratios; type: functional
# [2] = Evaluated for ratio of CT10 value. (CT10 = aerobic CT10 / hypoxic CT10)
# [3] = system: UV-4; experiment: Evaluated for (CF10) the concentration x time to reduce the surviving fraction to 10% of controls in the stirred suspension assay (SSC) in UV-4 cells under aerobic conditions; settings: Cricetulus griseus
smiles,measurement,setting,value
ClCCN(CCCl)c1ccccc1,Ratio,[1],52
same,Ratio,[2],1
same,CT10,[3],3 µM/h
